Test results taken from US7883888B2, “Peptides selectively lethal to malignant and transformed mammalian cells” (The Research Foundation —The State University of New York, priority 2000, dated 2011).

How the values were obtained:
[1] = system: human stem cells; experiment: differentiation of human stem cells into hematopoietic cell lines in the presence of growth factors; format: cell-based
Description: Additionally, the peptide having the amino acid sequence as set forth in SEQ ID NO:3 fused at the carboxy terminal end to the leader peptide set forth in SEQ ID NO:4, has no effect on the ability of human stem cells to differentiate into hematopoietic cell lines in the presence of growth factors. […] See Kanovsky et al., (Oct. 23, 2001) Proc. Nat. Acad. Sci. USA 98(22);12438-12443, the disclosure of which is incorporated by reference herein as if fully set forth.

[2] = system: TUC-3 cells; experiment: TUC-3 transformed pancreatic cancer cells in culture treated with synthetic peptide; format: cell-based, rat
Procedure: When applied to cells grown in culture, synthetic peptides are selectively lethal to malignant or transformed cells, resulting in dose dependent reduction in cell number. The effect is observable generally within two to three and at most 48 hours. A line of rat pancreatic acinar cells (BMRPA.430) grown in culture was transformed with K-ras. […] When BMRPA.430 cells were treated with a synthetic peptide with the primary structure of SEQ ID NO:1 coupled to leader sequence SEQ ID NO:4, at a dosage of 50 μg/ml, the cells were not affected. […] In contrast, the same synthetic peptide at the same dosage had no effect on non-malignant and non-transformed human breast or fibroblast cell lines.
The peptide having the sequence set forth in SEQ ID NO:3 was synthesized by solid phase synthesis with the leader sequence attached to the amino terminal end. This peptide is labeled PNC28′ in Table 2 below. The PNC28′ peptide was incubated with transformed pancreatic cancer (TUC-3) cells at three different concentrations, i.e., 25, 50 and 100 μg/ml. […] In contrast, when the leader sequence was attached to the carboxyl terminal end of the peptide (PNC28 in Table 2), at dosages of 50 and 100 μg/ml. 100% cell death occurred in about 4 days.

effect on ability of human stem cells to differentiate into hematopoietic cell lines [1]	Compound	reversion of TUC-3 cells ([2]; 25 μg/ml, two weeks of incubation)	cell death and reversion of TUC-3 cells ([2]; 50 μg/ml, two weeks of incubation)	cell death of TUC-3 cells ([2]; 100 μg/ml (highest dose), two weeks of incubation)	cells forming acini and exhibiting the untransformed morphological phenotype ([2]; 100 μg/ml, two weeks of incubation)	EFFECT ([2]; Table 3, leader is SEQ ID NO:4)
no effect	CSCC[C@H](NC(=O)[C@H](CCCCN)NC(=O)[C@H](Cc1c[nH]c2ccccc12)NC(=O)[C@H](CCCCN)NC(=O)[C@H](CCCCN)NC(=O)[C@H](CC(C)C)NC(=O)[C@H](CC(C)C)NC(=O)[C@H](CCCCN)NC(=O)[C@H](Cc1c[nH]c2ccccc12)NC(=O)[C@H](CC(C)C)NC(=O)[C@H](CC(=O)O)NC(=O)[C@H](CO)NC(=O)[C@H](Cc1ccccc1)NC(=O)[C@@H](NC(=O)[C@@H](N)CCC(=O)O)[C@@H](C)O)C(=O)N[C@@H](CCCNC(=N)N)C(=O)N[C@@H](CCCNC(=N)N)C(=O)N[C@@H](CC(N)=O)C(=O)N[C@@H](CCC(N)=O)C(=O)N[C@@H](Cc1ccccc1)C(=O)N[C@@H](Cc1c[nH]c2ccccc12)C(=O)N[C@H](C(=O)N[C@@H](CCCCN)C(=O)N[C@H](C(=O)N[C@@H](CCC(N)=O)C(=O)N[C@@H](CCCNC(=N)N)C(=O)NCC(=O)O)C(C)C)C(C)C [PNC 28]					
	PNC 28′: Leader (SEQ ID NO:4) attached to the amino terminal end of ETFSDLWKLL (SEQ ID NO: 3) (KKWKMRRNQFWVKVQRGETFSDLWKLL; penetration leader sequence from antennapedia; amino acid residue 17-26 of human p53 protein)	significantly fewer cells were seen to revert	The same phenomena were observed	no cell death	approximately half of the cells	No cell death
